Publication PMC10033409, “Autoregulation of GPCR signalling through the third intracellular loop” (Nature, 2023)
Where a name gives a salt, the structure may show the parent alone.

Key:
PTH1R–Gs peptide = assay: PTH1R-luciferase complementation reporter assay, Gs peptide; format: biochemical, human; conditions: PTH1R construct named by the receptor or protein whose sequence replaces ICL3 (WT = wild-type); X axis of Figure 5G
Protocol: For PTH1R luciferase complementation reporter assays, cells were seeded the day prior to transfection at 25-30% confluence on 12-well plates. For each transfection, 0.5 μg DNA, 1.5 μl X-tremeGENE HP, and 100 μl Opti-MEM were combined, incubated for 15-20 min, and added to seeded wells. For each mutant, PTH1R-Gs peptide, PTH1R-Gq peptide and PTH1R-(no peptide) constructs were transfected in parallel. Spep and Qpep constructs were transfected 24 h prior to collection, and no-peptide constructs were transfected 18 h before collection. […] The cell mixture was centrifuged (3 min, 300g) and the media was aspirated. Cell pellet was resuspended in 1 ml PBS and centrifuged again as above. […] Cellular debris was removed by centrifugation (1,000g for 1 min). To collect additional vesicles, debris was resuspended in 0.3 ml PBS, briefly vortexed, and centrifuged again (1,000g for 1 min). […] Vesicle samples were collected in a 96-well clear bottom plate and assayed for TagRFP fluorescence (Tecan Spark, excitation 521 nm, emission 585 nm, gain 150). […] The plate was tapped 2-3 times to mix, and the kinetic read was resumed. […] The maximum luminescence value that appeared stable over time was used for further analysis. Specific Spep and Qpep signals were calculated by subtracting the control value from the Spep value and the Qpep value for a given experiment.

β2AR = assay: cAMP accumulation (cAMP-Glo), β2AR; conditions: β2AR ∆ICL3

Molecule | Specific Peptide Signal, Gs (Average) (PTH1R–Gs peptide) | cAMP (Isoproterenol/Forskolin Maximum), Average (β2AR; isoproterenol 1 pM) | cAMP (Isoproterenol/Forskolin Maximum), Average (β2AR; isoproterenol 10 pM) | cAMP (Isoproterenol/Forskolin Maximum), Average (β2AR; isoproterenol 50 pM) | cAMP (Isoproterenol/Forskolin Maximum), Average (β2AR; isoproterenol 100 pM) | cAMP (Isoproterenol/Forskolin Maximum), Average (β2AR; isoproterenol 250 pM) | cAMP (Isoproterenol/Forskolin Maximum), Average (β2AR; isoproterenol 500 pM) | cAMP (Isoproterenol/Forskolin Maximum), Average (β2AR; isoproterenol 1e-9 M) | cAMP (Isoproterenol/Forskolin Maximum), Average (β2AR; isoproterenol 2.5e-9 M) | cAMP (Isoproterenol/Forskolin Maximum), Average (β2AR; isoproterenol 1.25e-8 M) | cAMP (Isoproterenol/Forskolin Maximum), Average (β2AR; isoproterenol 1e-7 M) | cAMP (Isoproterenol/Forskolin Maximum), Average (β2AR; isoproterenol 1e-5 M) | cAMP (Isoproterenol/Forskolin Maximum), Average (β2AR; isoproterenol 100 fM)
MDM2 | 0.38 |  |  |  |  |  |  |  |  |  |  |  | 
CC(C)NCC(O)c1ccc(O)c(O)c1 (stereo not drawn) [Isoproterenol, isoproterenol (+)-bitartrate salt] |  | 0.11 | 0.0218 | 0.0339 | 0.22 | 0.26 | 0.29 | 0.40 | 0.51 | 0.61 | 0.62 | 0.77 | 0.09
